The list shows a part of the results, in another mix than the full data. Some tests of the compounds listed are not included; inactive here does not mean inactive elsewhere. Activity calls are given as the source filed them.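 Rule for the calls: active = share of bacteria positive for the green fluorescent reporter and its mean brightness both inhibited by 50% or more; inactive = the rest, inconclusive results apart.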
Assay: S. aureus quorum sensing inhibitors, primary screen, RNAIII-GFP reporter, flow cytometry (AID 527);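 note: 0% = AIP-stimulated control and 100% = unstimulated bacteria without AIP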
Conditions: S. aureus RN6390 RNAIII-GFP reporter, AIP-induced, flow cytometry 3 h; at 2 µM; hits give high values

Structure (SMILES) | inhibition
O=C(OC1CN2CCC1CC2)C(CO)(c1ccccc1)c1ccccc1 (stereo unspecified) | inactive: 0.2%

Reference: PubChem BioAssay AID527 (NMMLSC, 2006)
